This test concerns the target BCL6 (Homo sapiens, UniProt P41182). Description: HiBiT cellular degradation assay in Su-DHL-4 cells. To be noted: read-out: HiBiT SU-DHL-4 DC50, concentration to reach 50% degradation of endogenous SmBiT-tagged BCL6, 24 hours of compound treatment. As to the method: DC50 (concentration to reach 50% degradation) values were determined from a cellular degradation assay (HiBiT, Promega™) in Su-DHL-4 cells (Table 1). Endogenous BCL6 was tagged with the 11-amino acid SmBiT through CRISPR/Cas9 gene editing and single cell clone selection. After 24 hours of compound treatment, cells were lysed and incubated with LgBiT protein to reconstitute intact nanoluciferase. Substrate was then added and relative luciferase units were measured. Degradation levels for each treatment were taken as a percentage compared to the control, 100% DMSO (Prism).
(In general: With HiBiT, luminescence reflects the tagged protein that the partner subunit can reach.)

The values below come from patent US20250074890A1, “CYANOPYRIDINE AND CYANOPYRIMIDINE BCL6 DEGRADERS” (DANA-FARBER CANCER INSTITUTE, INC., priority 2021, published 2025).

Consider `CNC(=O)COc1cc2cc(Nc3ncc(C#N)c(N4CC(C)C(F)(F)C(CCN)C4)n3)ccc2n(C)c1=O` (stereo not shown), for which the DC50 turned out to be 60 nM.
